The list shows a part of the results, in another mix than the full data. Some salts or complexes appear as unconnected parts, following the source record. Activity calls are given as the source filed them.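 How the source made its calls: active means calcium response B-score plate-corrected fluorescence ratio at least 3 library SD, with starting fluorescence B-score inside 5 SD; inactive means the rest.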
biological target: Mas-related G-protein coupled receptor member X1 (Homo sapiens) (UniProt Q96LB2); assay: agonists of human MrgX1 receptor, primary screen, HEK293 cells, Fluo-4 calcium flux (AID 588627); conditions: Fluo-4 calcium fluorescence, agonist mode, at 10 µM
Procedure, shortened: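 Material: HEK293 cells stably expressing human MrgX1 receptor | Quantity: 15,000 cells per well | Times: Cells plated overnight, dye loaded 0.5 h 37 °C, 0.5 h room temperature | Measured by: Kinetic Fluo-4 NW fluorescence of intracellular calcium | Control set: Positive and negative controls per plate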

Amino acid sequences for entries named in this document (tags omitted).
UniProt Q96LB2, whole entry: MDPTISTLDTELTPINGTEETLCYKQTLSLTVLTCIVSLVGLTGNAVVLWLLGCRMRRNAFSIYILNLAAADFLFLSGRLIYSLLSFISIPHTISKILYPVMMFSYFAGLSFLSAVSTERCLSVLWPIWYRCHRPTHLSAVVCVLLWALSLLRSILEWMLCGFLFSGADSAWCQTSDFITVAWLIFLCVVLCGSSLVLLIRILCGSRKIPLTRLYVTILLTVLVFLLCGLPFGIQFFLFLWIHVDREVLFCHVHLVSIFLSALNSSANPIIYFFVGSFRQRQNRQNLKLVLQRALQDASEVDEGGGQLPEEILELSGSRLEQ

SMILES	outcome
NC(=O)c1cc([N+](=O)[O-])cc([N+](=O)[O-])c1N	inactive
Cc1ccc(N/C(=N/P(=O)(N2CCOCC2)N2CCOCC2)N2CCOCC2)cc1	inactive
COc1ccccc1OP(C)(=O)Nc1ccc(Br)cc1 (configuration not stated)	inactive
CN(C(=O)Cc1ccc(Cl)c(Cl)c1)[C@H]1CCCC[C@H]1N1CCCC1	inactive
Cc1ccc(OP(=O)(Nc2nccs2)Oc2ccc(C)cc2)cc1	inactive
COc1ccc(OP(C)(=O)Nc2ccccn2)cc1 (configuration not stated)	inactive
COc1ccccc1OP(=O)(Nc1ccc(C)cn1)Oc1ccccc1OC	inactive
Clc1ccc(Cl)c(NC2=NCC(CBr)S2)c1 (configuration not stated)	inactive
CN(C)CCOC(=O)C(O)(c1ccccc1)C1CCCC1 (configuration not stated)	inactive
CN1CCCC(OC(=O)C(c2ccccc2)c2ccccc2)C1 (configuration not stated)	inactive
CC(C)CC(=O)NC(Sc1ccc(Cl)cc1)C(Cl)(Cl)Cl (configuration not stated)	inactive
O=[N+]([O-])c1cc([N+](=O)[O-])c(Nc2ccccn2)c([N+](=O)[O-])c1	inactive
Cc1c(NP(C)(=O)Oc2ccc(C(C)C)cc2)c(=O)n(-c2ccccc2)n1C (configuration not stated)	inactive
Nc1cc(N)c2nonc2c1[N+](=O)[O-]	inactive
O=C(NC(Sc1ccncn1)C(Cl)(Cl)Cl)c1ccccc1 (configuration not stated)	inactive
Oc1ccccc1CNc1ccccn1	inactive
COc1ccccc1OP(C)(=O)Nc1ccc(C)cc1C (configuration not stated)	inactive
CP(=O)(Nc1ccccn1)Oc1ccccc1 (configuration not stated)	inactive
CCc1ccc(OP(C)(=O)O)cc1	inactive
O=C(O)c1ccccc1[As](=O)(O)O	inactive
CC(=O)Nc1ccc([As](=O)(O)O)cc1	inactive
Cc1cc(C)cc(OP(C)(=O)Nc2cccc(C(F)(F)F)c2)c1 (configuration not stated)	inactive
O=P(Nc1nc2ccc(Cl)cc2s1)(c1ccccc1)c1ccccc1	inactive
Cc1ccc(NP(=O)(Oc2ccccc2F)Oc2ccccc2F)nc1	inactive

SMILES	outcome
CN(C(=O)Cc1ccc(Cl)c(Cl)c1)[C@H]1CCCC[C@@H]1N1CCCC1	inactive
COc1ccccc1OP(C)(=O)Nc1ccc(C)c(C)c1 (configuration not stated)	inactive
CCOP(=O)(Nc1ccccc1)OCC	inactive
Cc1cc(SC(NC(=O)c2ccc(F)cc2)C(Cl)(Cl)Cl)ncn1 (configuration not stated)	inactive
COc1ccc(OP(C)(=O)Nc2ccccc2Br)cc1 (configuration not stated)	inactive
Cc1nc2ccc3ccccc3c2o1.O=[N+]([O-])c1cc([N+](=O)[O-])c(O)c([N+](=O)[O-])c1	inactive
O=[N+]([O-])c1cc([N+](=O)[O-])c(CCN2CCOCC2)c([N+](=O)[O-])c1	inactive
CCN(N=Nc1nonc1N)c1nonc1N	inactive
CP(=O)(OCCOc1ccccc1)OCCOc1ccccc1	inactive
CP(=O)(Nc1ccc(Cl)cc1Cl)Oc1ccccc1 (configuration not stated)	inactive
Nc1cccc2ccc([As](=O)(O)O)cc12	inactive
Nc1ccc2c(ccc3cccnc32)n1.O=[N+]([O-])c1cc([N+](=O)[O-])c(O)c([N+](=O)[O-])c1	inactive
O=C(Nc1cc([As](=O)(O)O)ccc1O)c1ccccc1	inactive
CCOC(=O)c1ccc(NP(C)(=O)Oc2ccc(Cl)cc2)cc1 (configuration not stated)	inactive
CP(=O)(OC12CC3CC(CC(C3)C1)C2)OC12CC3CC(CC(C3)C1)C2	inactive
CC(C)(C)C(=O)NC(Sc1ccncn1)C(Cl)(Cl)Cl (configuration not stated)	inactive
O=[N+]([O-])c1ncn(CCn2ncnc2[N+](=O)[O-])n1	inactive
O=[N+]([O-])c1cccc(NC2=NCC(CBr)S2)c1 (configuration not stated)	inactive
O=C(O)CNc1ccc([As](=O)(O)O)cc1	inactive
COc1ccc(C2=NCC(CBr)S2)cc1 (configuration not stated)	inactive
COc1ccc(OP(C)(=O)Nc2ccc(Br)cc2)cc1 (configuration not stated)	inactive
CCN(CC)CC(O)COC(=O)C(O)(c1ccccc1)C1CCCCC1 (configuration not stated)	inactive
O=C(OCCCN1CCCC1)C(O)(c1ccccc1)C1CCCCC1 (configuration not stated)	inactive
COc1ccccc1OP(C)(=O)Nc1c(C)n(C)n(-c2ccccc2)c1=O (configuration not stated)	inactive

SMILES	outcome
O=[N+]([O-])c1cccc2n[nH]nc12	inactive
CC(=O)N1C2C3N(C(C)=O)C1C1N(C(C)=O)C(C(N1C(C)=O)N3C(C)=O)N2C(C)=O	inactive
CCc1nc2c(n1)c1c(non1O)c1c2no[n+]1[O-]	inactive
O=[N+]([O-])c1cc([N+](=O)[O-])c(CCNc2ccccc2)c([N+](=O)[O-])c1	inactive
CCc1ccc(OP(C)(=O)Nc2cccnc2)cc1 (configuration not stated)	inactive
Cc1ccc(NP(=O)(Oc2ccccc2)Oc2ccccc2)nc1	inactive
CP(=O)(Oc1ccccc1)N1CCOC1=O (configuration not stated)	inactive
C[N+]1=C2C=CC=CC=C2SC12C([N+](=O)[O-])=CC([N+](=O)[O-])=C[C-]2[N+](=O)[O-] (configuration not stated)	inactive
CC(C)(C)c1ccc(OP(C)(=O)O)cc1	inactive
Nc1ccc([As](=O)(O)c2ccc(N)cc2)cc1	inactive
COc1ccccc1OP(C)(=O)Nc1ccccc1Br (configuration not stated)	inactive
CP(=O)(Nc1ccc(Cl)cc1)Oc1ccc(F)cc1 (configuration not stated)	inactive
CCN(/C(=N/P(=O)(N1CCOCC1)N1CCOCC1)N1CCOCC1)c1ccc(OC)cc1	inactive
CN(C)C(=O)OCCc1n(C)cc[n+]1C	inactive
CN(C)C(=O)c1c([N+](=O)[O-])cc([N+](=O)[O-])cc1[N+](=O)[O-]	inactive
CC(C)=N/N=C(\N)N[N+](=O)[O-]	inactive
CC1CCN(C(=O)Oc2c(Cl)cc(Cl)c3cccnc23)CC1	inactive
CP(=O)(Nc1ccc(SC(F)(F)F)cc1)Oc1ccc(F)cc1 (configuration not stated)	inactive
CC(C)C(=O)NC(Sc1ccccc1)C(Cl)(Cl)Cl (configuration not stated)	inactive
O=P(Nc1nccs1)(c1ccccc1)c1ccccc1	inactive
CCOP(C)(=S)SCC(=O)NC(C)(CC)C(=O)O (configuration not stated)	inactive
c1nnnn1CCn1cnnn1	inactive
CP(=O)(Nc1ccc2c(c1)OCCO2)Oc1ccccc1 (configuration not stated)	inactive
Cc1ccccc1NP(C)(=O)Nc1ccccc1C	inactive

SMILES	outcome
COc1ccc(OP(C)(=O)Nc2cccc(Br)c2)cc1 (configuration not stated)	inactive
O=P(Nc1ccccn1)(c1ccc(Br)cc1)c1ccc(Br)cc1	inactive
C[C@H]1OP(=O)(Oc2ccccc2)[C@H](O)[C@H](O)[C@H]1N=[N+]=[N-] (some centres not stated)	inactive
CN(C)CCOC(=O)C(O)(c1ccccc1)C1CCCCC1 (configuration not stated)	inactive
O=P(Nc1nc2ccccc2s1)(c1ccccc1)c1ccccc1	inactive
COc1ccc(NP(C)(=O)Oc2ccccc2OC)cc1 (configuration not stated)	inactive
O=[N+]([O-])c1ccc(O)c(/C=N/Nc2ccc([N+](=O)[O-])cc2[N+](=O)[O-])c1	inactive
O=[N+]([O-])c1ccc(OP2(=O)COCCO2)cc1 (configuration not stated)	inactive
CC(=O)NC(SC(=S)N(C)C)C(Cl)(Cl)Cl (configuration not stated)	inactive
O=[N+]([O-])c1ncn(CCn2cnc([N+](=O)[O-])n2)n1	inactive
O=[N+]([O-])c1cc([N+](=O)[O-])c(NCC2CCS(=O)(=O)C2)c([N+](=O)[O-])c1 (configuration not stated)	inactive
O=[As](O)(c1ccccc1)c1ccc(O)cc1	inactive
Nc1ccc([As](=O)(O)c2ccc([N+](=O)[O-])cc2)cc1	inactive
C(Cc1nn[nH]n1)Cc1nn[nH]n1	inactive
O=C(OC1CN2CCC1CC2)c1cccc(Cl)c1 (configuration not stated)	inactive
CCNC(=S)/N=C(\N)N[N+](=O)[O-]	inactive
O=C(NC1CCS(=O)(=O)C1)NP(=S)(Oc1ccccc1)Oc1ccccc1 (configuration not stated)	inactive
Cc1ccc(NP(=O)(Oc2cccc(C)c2)Oc2cccc(C)c2)nc1	inactive
CCOC(=O)NC(Sc1ccccc1)C(Cl)(Cl)Cl (configuration not stated)	inactive
c1ccc(-c2nn[nH]n2)c(-c2nn[nH]n2)c1	inactive
CCOC(=O)c1ccc(NP(C)(=O)Oc2ccc(F)cc2)cc1 (configuration not stated)	inactive
COc1ccc(OP(C)(=O)Nc2ccc(SC(F)(F)F)cc2)cc1 (configuration not stated)	inactive
CC(=O)NC(SC(=S)N(CC(C)C)CC(C)C)C(Cl)(Cl)Cl (configuration not stated)	inactive
Cc1ccc(OP(=O)(Nc2ccccn2)Oc2ccc(C)cc2)cc1	inactive

SMILES	outcome
COC(=O)c1cc2c(s1)N=C(c1ccccc1)N(C)P2(=O)N1CCOCC1 (configuration not stated)	inactive
CCN(CC)CCCOC(=O)C(O)(c1ccccc1)C1CCCCC1 (configuration not stated)	inactive
CCC(=O)N1C2C3N(C(=O)CC)C1C1N(C(=O)CC)C(C(N1C(=O)CC)N3C(=O)CC)N2C(=O)CC	inactive
O=C(OC1CN2CCC1CC2)c1ccccc1 (configuration not stated)	inactive
CP(=O)(Nc1ccccc1)Oc1ccc(F)cc1 (configuration not stated)	inactive
CN(C)C(=O)Oc1noc2ccccc12	inactive
O=[N+]([O-])c1cc([N+](=O)[O-])c(OC2CCCCC2O)c([N+](=O)[O-])c1 (configuration not stated)	inactive
CCCCCOc1ccc(NP(C)(=O)Oc2ccc(Cl)cc2Cl)cc1 (configuration not stated)	inactive
Cc1ccccc1OP(=O)(Nc1ccccn1)Oc1ccccc1C	inactive
CCOc1ccc(C2=NCC(CBr)S2)cc1 (configuration not stated)	inactive
O=P1(Nc2nc3ccc(Cl)cc3s2)COc2ccccc2O1 (configuration not stated)	inactive
CP(=O)(Nc1ccccc1F)Oc1ccccc1 (configuration not stated)	inactive
CC(C)c1ccc(OP(C)(=O)Nc2ccc(SC(F)(F)F)cc2)cc1 (configuration not stated)	inactive
CC(C)(C)C(=O)NC(Sc1ccccc1)C(Cl)(Cl)Cl (configuration not stated)	inactive
O=C(OC1CN2CCC1CC2)c1ccc([N+](=O)[O-])cc1 (configuration not stated)	inactive
CC(=O)c1ccc(N2CC2c2ccncc2)cc1 (configuration not stated)	inactive
C[C@@H]1C=CCP(=O)(Oc2ccccc2)O1 (some centres not stated)	inactive
C[C@H]1OP(=O)(Oc2ccccc2)C[C@@H]2O[C@@H]21 (some centres not stated)	inactive
O=C(OCCN1CCN(CCOCc2ccccc2)CC1)C(O)(c1ccccc1)c1ccccc1	inactive
CC(=O)Nc1ccc(Oc2c([N+](=O)[O-])cc([N+](=O)[O-])cc2[N+](=O)[O-])cc1	inactive
COc1ccc2c(c1O)-c1c(O)c(OC)cc3c1[C@H](C2)[N+](C)(C)CC3.O=[N+]([O-])c1cc([N+](=O)[O-])c([O-])c([N+](=O)[O-])c1[O-]	inactive
